Laboratory results published in paper PMC6475490 (Psychopharmacology, 2018).

Chains of the proteins cited; added tags and fusions are not shown.
UniProt P31652, whole entry: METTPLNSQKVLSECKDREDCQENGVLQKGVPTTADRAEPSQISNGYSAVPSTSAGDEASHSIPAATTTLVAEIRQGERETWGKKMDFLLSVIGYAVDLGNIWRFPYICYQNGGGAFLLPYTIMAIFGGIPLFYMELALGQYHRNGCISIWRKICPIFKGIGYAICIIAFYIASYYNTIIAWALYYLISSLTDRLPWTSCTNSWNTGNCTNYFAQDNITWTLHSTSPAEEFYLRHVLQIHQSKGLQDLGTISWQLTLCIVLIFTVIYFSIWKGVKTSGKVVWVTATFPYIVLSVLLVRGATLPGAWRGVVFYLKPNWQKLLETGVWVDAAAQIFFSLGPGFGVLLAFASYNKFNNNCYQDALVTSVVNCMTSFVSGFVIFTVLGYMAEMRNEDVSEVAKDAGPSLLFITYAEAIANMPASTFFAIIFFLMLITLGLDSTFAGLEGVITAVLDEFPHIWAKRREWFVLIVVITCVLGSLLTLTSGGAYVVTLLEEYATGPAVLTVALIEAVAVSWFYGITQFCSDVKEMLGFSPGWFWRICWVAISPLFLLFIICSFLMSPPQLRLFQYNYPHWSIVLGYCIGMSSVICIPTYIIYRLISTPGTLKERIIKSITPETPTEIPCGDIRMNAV
UniProt P23977, whole entry: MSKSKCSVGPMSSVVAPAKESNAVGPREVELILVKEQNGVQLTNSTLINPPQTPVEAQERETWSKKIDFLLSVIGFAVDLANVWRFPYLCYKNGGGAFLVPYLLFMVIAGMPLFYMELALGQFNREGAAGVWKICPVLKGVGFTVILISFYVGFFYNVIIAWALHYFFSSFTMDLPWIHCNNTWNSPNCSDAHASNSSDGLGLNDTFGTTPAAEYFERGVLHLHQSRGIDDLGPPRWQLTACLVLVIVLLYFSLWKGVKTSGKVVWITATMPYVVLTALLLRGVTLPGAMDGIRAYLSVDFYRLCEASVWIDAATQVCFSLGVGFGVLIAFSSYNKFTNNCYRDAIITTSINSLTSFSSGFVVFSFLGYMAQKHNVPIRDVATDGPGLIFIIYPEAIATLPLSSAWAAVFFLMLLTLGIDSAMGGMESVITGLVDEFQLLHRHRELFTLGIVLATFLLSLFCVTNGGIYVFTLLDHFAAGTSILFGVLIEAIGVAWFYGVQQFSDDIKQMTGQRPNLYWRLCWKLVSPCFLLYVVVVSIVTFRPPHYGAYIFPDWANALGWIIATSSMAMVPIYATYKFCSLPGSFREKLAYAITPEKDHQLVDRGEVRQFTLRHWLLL

Experiments:
SERT = SERT (Rattus norvegicus, UniProt P31652); test: SERT-mediated [3H]5-HT release assay in rat brain synaptosomes; assay type: biochemical; details: relative to methcathinone 1
DAT = DAT (Rattus norvegicus, UniProt P23977); test: DAT-mediated [3H]DA release assay in rat brain synaptosomes; assay type: biochemical; details: relative to methcathinone 1

`CNC(C)C(=O)c1ccc(OC)cc1` (centres unmarked) [Compound 25] was tested, and the “fold more potent at 5-HT release (SERT) compared to 1” value (SERT) was 22 fold and the “fold less potent at DA release (DAT) compared to 1” value (DAT) was 18 fold.
